The numbers were not newly measured in publication PMC12345137 (mBio, 2025), which cites them from elsewhere.

The chains behind the UniProt entries cited, without tags or fusion partners.
UniProt O07911, entry or part of it: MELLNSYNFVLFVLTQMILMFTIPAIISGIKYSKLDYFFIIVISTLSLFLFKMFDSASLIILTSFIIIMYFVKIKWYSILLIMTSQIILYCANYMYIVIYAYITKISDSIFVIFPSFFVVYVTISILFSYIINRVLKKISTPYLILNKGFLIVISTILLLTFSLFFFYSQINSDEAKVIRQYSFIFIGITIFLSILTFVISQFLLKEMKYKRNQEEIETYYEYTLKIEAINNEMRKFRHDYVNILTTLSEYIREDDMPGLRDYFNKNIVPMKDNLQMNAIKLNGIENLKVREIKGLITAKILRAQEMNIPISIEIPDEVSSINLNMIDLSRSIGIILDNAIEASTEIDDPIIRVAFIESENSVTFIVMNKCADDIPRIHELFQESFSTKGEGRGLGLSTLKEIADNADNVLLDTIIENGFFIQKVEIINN

One series addresses SA AgrC-I (Staphylococcus aureus, UniProt O07911). The settings on record: 100 nM cognate AIP; ± SEM; -b = no inhibition recorded at the highest AIP concentration tested; determined previously; ref (1); read-out: IC50, SA AgrC-I, b-lactamase assay; cited from earlier work.
What is called IC50 is the midpoint of a concentration-inhibition curve. Regarding S. schleiferi AIP-I [compound 30], the IC50 was 2.8 ± 0.8 nM.

Regarding S. warneri AIP-I [compound 16], the IC50 was 100 ± 10 nM. For S. chromogenes AIP-I [compound 27], the IC50 is 15 ± 1 nM. As for S. vitulinus AIP-I [compound 35], the half-maximal inhibitory concentration (IC50) is 190 ± 15 nM. On to S. haemolyticus AIP-I [compound 15], for which the IC50 was 340 ± 25 nM. Turning to S. hominis AIP-III [compound 12], the IC50 is 134 ± 8 nM.

Another series concerns S. aureus (SA) agr-II. Particulars: fluorescence; ref (17); cited from earlier work.
As for `NCCCC[C@H](N)C(=O)N[C@@H](Cc1ccc(O)cc1)C(=O)N[C@@H](Cc1ccc(O)cc1)C(=O)N1CCC[C@H]1C(=O)N[C@H]1CSC(=O)[C@H](Cc2ccccc2)NC(=O)[C@H](Cc2ccc(O)cc2)NC(=O)CNC(=O)[C@H](Cc2c[nH]c3ccccc23)NC1=O` [compound 33, S. simulans AIP-II], the IC50 was 15 nM.
